Source: BindingDB's records for doi:10.1146/annurev.pharmtox.37.1.205 (Emory University, 1997)
pKi: −log10 of the molar value.

By UniProt entry, the sequences of proteins in these tests, tags left out. Where a name states a change or a piece, a line headed by the entry shows the natural chain unless it says otherwise.
UniProt Q14833: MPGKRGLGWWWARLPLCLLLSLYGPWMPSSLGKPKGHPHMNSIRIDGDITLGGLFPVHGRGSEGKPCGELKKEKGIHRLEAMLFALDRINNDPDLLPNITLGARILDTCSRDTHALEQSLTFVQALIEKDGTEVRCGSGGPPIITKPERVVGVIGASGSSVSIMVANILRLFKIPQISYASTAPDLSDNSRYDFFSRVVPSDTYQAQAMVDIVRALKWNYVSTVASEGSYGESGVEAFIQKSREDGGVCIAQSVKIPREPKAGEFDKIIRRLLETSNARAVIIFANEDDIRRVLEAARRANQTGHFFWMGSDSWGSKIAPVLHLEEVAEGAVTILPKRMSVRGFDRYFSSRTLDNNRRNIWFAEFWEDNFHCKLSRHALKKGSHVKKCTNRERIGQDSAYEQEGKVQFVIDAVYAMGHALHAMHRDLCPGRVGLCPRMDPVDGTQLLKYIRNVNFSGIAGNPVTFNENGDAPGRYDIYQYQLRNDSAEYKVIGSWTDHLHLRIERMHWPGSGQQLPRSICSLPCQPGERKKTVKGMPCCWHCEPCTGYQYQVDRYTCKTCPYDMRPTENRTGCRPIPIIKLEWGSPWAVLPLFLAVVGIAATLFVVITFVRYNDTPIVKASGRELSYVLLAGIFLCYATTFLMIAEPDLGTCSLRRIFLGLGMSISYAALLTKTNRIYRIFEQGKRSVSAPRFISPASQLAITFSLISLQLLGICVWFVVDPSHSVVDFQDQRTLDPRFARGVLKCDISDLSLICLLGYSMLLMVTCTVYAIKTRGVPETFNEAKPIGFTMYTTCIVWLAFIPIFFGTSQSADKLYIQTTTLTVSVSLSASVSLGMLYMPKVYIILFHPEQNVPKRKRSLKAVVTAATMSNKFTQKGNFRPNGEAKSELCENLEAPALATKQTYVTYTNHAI

Target: Metabotropic glutamate receptor 4 (Homo sapiens, UniProt Q14833)

`N[C@@]1(C(=O)O)CC[C@H](C(=O)O)C1` [1S, 3R-ACPD] was tested. Which pKi did it give?
Its pKi is under 5.00.
